Data reported in patent EP1624029A1, “New Pyridinium imine based dyes and their use in optical layers for optical data recording” (CLARIANT INTERNATIONAL LTD., priority 2004, dated 2006).

Conditions: in Tetrafluoropropanol, 25°C

For `CC[n+]1ccccc1N=CC1C(=O)NC(=O)NC1=O` [Example 1], the Solubility was 20 g/L.
